Earlier results as cited in US20040014624A1, “Recylable cleaning compositions” (priority 2003, published 2004).

Conditions: known values used for calibration; cited from earlier work

CCCCc1ccccc1 [butyl benzene]
Log P of alkylbenzene retention time standards: 4.18
